Literature values in PMC6731456.

Protein sequences, listed by entry. Tags and fused reporters are not part of them. Lines headed by an entry give the natural chain unless they say otherwise; changes in a name come on top. Residues count along the entry.
UniProt P35414: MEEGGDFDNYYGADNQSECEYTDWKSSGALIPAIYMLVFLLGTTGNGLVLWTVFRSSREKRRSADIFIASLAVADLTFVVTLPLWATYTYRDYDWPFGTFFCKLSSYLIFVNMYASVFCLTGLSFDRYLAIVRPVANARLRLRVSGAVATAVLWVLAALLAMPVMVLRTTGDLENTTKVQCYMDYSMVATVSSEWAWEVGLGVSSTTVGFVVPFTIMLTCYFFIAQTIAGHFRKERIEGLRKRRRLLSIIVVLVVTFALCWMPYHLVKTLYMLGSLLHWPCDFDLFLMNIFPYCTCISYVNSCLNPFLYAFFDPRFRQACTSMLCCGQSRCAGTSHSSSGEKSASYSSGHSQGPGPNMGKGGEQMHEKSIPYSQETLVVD
UniProt Q9ULZ1, 39-77: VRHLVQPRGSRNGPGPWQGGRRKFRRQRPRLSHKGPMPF

Experiments:
[1] = biological target: Apelin receptor (Homo sapiens) (UniProt P35414); assay: radioligand binding
[2] = biological target: Apelin receptor (Homo sapiens) (UniProt P35414); assay: competition radioligand binding

Substance | Kd [1] [nM] | Ki [2] [nM]
[3H]-[Pyr1]-[Met75(O)]apelin-13 apelin-13 (from UniProt Q9ULZ1) | 2.5 | –
[Pyr1]apelin-13 apelin-13 (from UniProt Q9ULZ1) | – | 1.5

Second part, the substance after the results:

Kd [1] [nM] | Ki [2] [nM] | Substance
0.0063 | – | [125I]-[Nle75, Tyr77]apelin-36 apelin-36 (from UniProt Q9ULZ1)
0.63 | – | [125I]apelin-13 apelin-13 (from UniProt Q9ULZ1)
0.02 | – | [125I]-[Pyr1]-[Nle75, Tyr77]apelin-13 apelin-13 (from UniProt Q9ULZ1)
